Results taken from patent US20090304746A1.

Target: HLA-B*5401 (Human)
Test: competition with 125I-labelled probe peptide, purified HLA, gel filtration
Details: remark: other sources report otherwise

**Q.** APLGGAARAL (modifications not checked) [peptide 15.0219] was tested. Which IC50 did it give?
**A.** 12.5 µM
